Results: patent publication EP3970494A1 (priority 2020, dated 2022)

What was measured:
[1] = test system: Phakopsora pachyrhizi; test: Protective control of soybean rust on soybeans, inoculation 2 days after treatment (PHAKPA P2); format: in vivo; settings: soybean seedlings inoculated 2 days after treatment, strain with F129L in cytochrome b, % diseased leaf area, untreated controls usually higher than 85 %; for PHAKPA Disease level (%) P2 at 4 ppm: 4 ppm spray; for PHAKPA Disease level (%) P2 at 16 ppm: 16 ppm spray
[2] = test system: Phakopsora pachyrhizi; test: Protective control of soybean rust on soybeans, inoculation six days after treatment (PHAKPA P6); format: in vivo; settings: soybean seedlings inoculated six days after treatment, strain with F129L in cytochrome b, % diseased leaf area, untreated controls usually higher than 85 %; for PHAKPA Disease level (%) P6 at 4 ppm: 4 ppm spray; for PHAKPA Disease level (%) P6 at 16 ppm: 16 ppm spray

SMILES | PHAKPA Disease level (%) P2 at 4 ppm [1] | PHAKPA Disease level (%) P2 at 16 ppm [1] | PHAKPA Disease level (%) P6 at 4 ppm [2] | PHAKPA Disease level (%) P6 at 16 ppm [2]
CO/N=C(/C(=O)OC)c1cccc(C)c1CO/N=C(\C)c1cc(-c2ccccc2)sn1 [Example 36] | 30% | 32% | 28% | 28%
CNC(=O)/C(=N/OC)c1cccc(C)c1CO/N=C(\C)c1cc(C(F)F)ccn1 [Example 37] | 20% | 4% | 52% | 11%
CNC(=O)/C(=N/OC)c1cccc(C)c1CO/N=C(\C)c1cc(-c2cccc(C(F)(F)F)c2)sn1 [Example 39] | 40% | 15% | 40% | 4%
CNC(=O)/C(=N/OC)c1cccc(C)c1CO/N=C(\C)c1ncsc1C(F)(F)F [Example 41] | 63% | 6% | 83% | 47%
CO/N=C(/C(=O)OC)c1cccc(C)c1CO/N=C(\C)c1cc(C(F)(F)F)cc(Cl)n1 [Example 42] | 60% | 28% | 57% | 30%
CNC(=O)/C(=N/OC)c1cccc(C)c1CO/N=C(\C)c1cc(C(F)(F)F)cc(Cl)n1 [Example 43] | 13% | 1% | 32% | 3%
CO/N=C(/C(=O)OC)c1cccc(C)c1CO/N=C(\C)c1cc(C(F)(F)F)cc(C)n1 [Example 46] | 48% | 21% | 48% | 9%
CO/N=C(/C(=O)OC)c1cccc(C)c1CO/N=C(\C)c1ccnc(C(F)(F)F)c1 [Example 47] | 97% | 87% | 83% | 90%
CNC(=O)/C(=N/OC)c1cccc(C)c1CO/N=C(\C)c1ccnc(C(F)(F)F)c1 [Example 48] | 57% | 4% | 83% | 33%
CO/N=C(/C(=O)OC)c1cccc(C)c1CO/N=C(\C)c1cn(C)nc1C(F)F [Example 49] | 100% | 100% | 90% | 83%
CNC(=O)/C(=N/OC)c1cccc(C)c1CO/N=C(\C)c1cn(C)nc1C(F)F [Example 50] | 97% | 47% | 83% | 67%
CNC(=O)/C(=N/OC)c1cccc(C)c1CO/N=C(\C)c1cn(C)nc1C(F)(F)F [Example 52] | 77% | 17% | 73% | 37%
CNC(=O)/C(=N/OC)c1cccc(C)c1CO/N=C(\C)c1ncc(C(F)(F)F)s1 [Example 53, (2E)-2-Methoxyimino-N-methyl-2-[3-methyl-2-[[(E)-1-[5-(trifluoromethyl)thiazol-2-yl]ethylideneamino]oxymethyl]phenyl]acetamide] | 11% | 1% | 12% | 1%
CO/N=C(/C(=O)OC)c1cccc(C)c1CO/N=C(\C)c1cc(C#N)ccn1 [Example 54] | 95% | 6% | 95% | 14%
CNC(=O)/C(=N/OC)c1cccc(C)c1CO/N=C(\C)c1cc(C#N)ccn1 [Example 55] | 25% | 5% | 75% | 33%
CO/N=C(/C(=O)OC)c1cccc(C)c1CO/N=C(\C)c1cc(C(F)(F)F)nc(C)n1 [Example 57] | 100% | 12% | 93% | 12%
C#Cc1cnc(/C(C)=N/OCc2c(C)cccc2/C(=N\OC)C(=O)OC)s1 [Example 59] | 87% | 30% | 77% | 37%
CO/N=C(/C(=O)OC)c1cccc(C)c1CO/N=C(\C)c1cc(C(F)F)nc(C)n1 [Example 60] | 70% | 23% | 70% | 20%
C#Cc1cnc(/C(C)=N/OCc2c(C)cccc2/C(=N\OC)C(=O)NC)s1 [Example 61] | 90% | 33% | 100% | 100%
CNC(=O)/C(=N/OC)c1cccc(C)c1CO/N=C(\C)c1cc(C(F)F)nc(C)n1 [Example 62] | 48% | 7% | 67% | 12%
CNC(=O)/C(=N/OC)c1cccc(C)c1CO/N=C(\C)c1cc(C#N)cc(Cl)n1 [Example 63] | 43% | 11% | 70% | 5%
CO/N=C(/C(=O)OC)c1cccc(C)c1CO/N=C(\C)c1cc(C#N)cc(Cl)n1 [Example 64] | 60% | 30% | 63% | 12%
CO/N=C(/C(=O)OC)c1cccc(C)c1CO/N=C(\C)c1cccc(C)n1 [Example 65] | 100% | 35% | 100% | 37%
CO/N=C(/C(=O)OC)c1cccc(C)c1CO/N=C(\C)c1cc2ccccc2cn1 [Example 66] | 60% | 38% | 57% | 23%
CNC(=O)/C(=N/OC)c1cccc(C)c1CO/N=C(\C)c1ccc(C#CC2CC2)nc1 [Example 69] | 77% | 50% | 87% | 57%
CNC(=O)/C(=N/OC)c1cccc(C)c1CO/N=C(/c1cc(C(F)(F)F)ccn1)C1CC1 [Example 70, (2E)-2-[2-[[(E)-[cyclopropyl-[4-(trifluoromethyl)-2-pyridyl]methylene]amino]oxymethyl]-3-methyl-phenyl]-2-methoxyimino-N-methyl-acetamide] | 5% | 0% | 14% | 1%
CO/N=C(/C(=O)OC)c1cccc(C)c1CO/N=C(/c1cc(C(F)(F)F)ccn1)C1CC1 [Example 72, Methyl (2E)-2-[2-[[(E)-[cyclopropyl-[4-(trifluoromethyl)-2-pyridyl]methylene]amino]-oxymethyl]-3-methyl-phenyl]-2-methoxyimino-acetate] | 70% | 22% | 77% | 18%
CO/N=C(/C(=O)OC)c1cccc(C)c1CO/N=C(\C)c1ncccc1F [Example 74] | 97% | 28% | 80% | 67%
CO/N=C(/C(=O)OC)c1cccc(C)c1CO/N=C(\C)c1cncc(F)c1 [Example 75] | 100% | 97% | 100% | 97%
